These results are taken from patent publication US20150065423A1, “RAPID ACTING INJECTABLE FORMULATIONS” (Perosphere, Inc., priority 2013, published 2015).

This data set is described as follows: Soluble concentration of nitroglycerin measured by HPLC. From the text: The resultant suspension was centrifuged and the supernatant withdrawn to become the test article. […] The results are depicted in FIG. 1.

The structures appear in SMILES notation.

Take `O=[N+]([O-])OCC(CO[N+](=O)[O-])O[N+](=O)[O-]` [nitroglycerin]: the nitroglycerin content (25 nitroglycerin tablets in 5 mL Humalog aqueous solution overnight, supernatant, HPLC) came out at 1.2 mg/mL. In addition, the “speed of going into solution” value (in presence of PEG3350 versus its absence) was “more quickly”.
